Results published in article PMC9062740 (2022).

Molecular target: filamentous actin (F-actin) polymerized from rabbit muscle G-actin (rabbit, UniProt P68135 1-377)

- Kd: 7.3 µM
B1: CLIP-170 S2-CG2-S3 fragment (156-350) (domain or fragment)
chain: MVSSSPSTPSNIPQKPSQPAAKEPSATPPISNLTKTASESISNLSEAGSIKKGERELKIGDRVLVGGTKAGVVRFLGETDFAKGEWCGVELDEPLGKNDGAVAGTRYFQCQPKYGLFAPVHKVTKIGFPSTTPAKAKANAVRRVMATTSASLKRSPSASSLSSMSSVASSVSSRPSRTGLLTETSSRYARKISGT
